{"source": "patent US11612576B2", "about": "(Thiogenesis Therapeutics, Inc., priority 2017, dated 2023)", "origin": "cited, not measured here", "test_system": "Plasmodium berghei ANKA strain", "conditions": "mice infected with Plasmodium berghei ANKA strain; cited from earlier work", "data": [{"smiles": "CC(C)(CO)[C@@H](O)C(=O)NCCC(=O)NCCSSCCNC(=O)CCNC(=O)[C@H](O)C(C)(C)CO", "note": "[pantethine]", "values": [{"measurement": "cerebral syndrome in infected mice", "value": "prevents the cerebral syndrome"}]}]}
